The list shows a part of the results, in another mix than the full data. Calls of active or inactive are those of the source.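 How the source made its calls: active means inhibition of at least 50% at 20 µM; inactive means the rest.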

This assay in a line: Peg3 promoter-driven luciferase inhibitors, primary screen, cell-based, HeLa, luciferase luminescence (AID 588405). To be noted: HeLa PEG-Prom luciferase reporter, overnight, at 20 µM, active compounds read high. (In a reporter assay the amount or activity of a reporter protein is the signal.)
Take `COc1cccc(C(c2nnnn2C(C)(C)C)N2CCC(n3c(=O)[nH]c4ccccc43)CC2)c1OC` (configuration not stated): the inhibition (commonly the change of the read-out against control, counted positive when it falls) is inactive: 34.4%.

As to `CCOC(=O)N1CCC(Nc2ccc(C)cc2)CC1`, the inhibition was inactive: 3.76%.

Take `N/C(=N\O)c1c(N)no[n+]1[O-]`: the inhibition is inactive: 4.74%.

For `O=C(OC1CN2CCC1CC2)C1c2ccccc2C=Cc2ccccc21` (configuration not stated), the inhibition was inactive: -1.53%.

Take `O=c1[nH]c2ccccc2n1C1CCN(C(c2cccs2)c2nnnn2C2CCCC2)CC1` (configuration not stated): the inhibition was inactive: 38.9%.

For the molecule `CCCCn1nnnc1C(c1cccc(OC)c1OC)N1CCC(n2c(=O)[nH]c3ccccc32)CC1` (configuration not stated), the inhibition is inactive: 40%.

Turning to `CCCCn1nnnc1C(c1ccccc1)N1CCC(n2c(=O)[nH]c3ccccc32)CC1` (configuration not stated), the inhibition is inactive: 46%.

Regarding `COc1cc(C(=O)NCC2(N3CCOCC3)CCCCC2)cc(OC)c1C`, the inhibition was inactive: 1.65%.

On to `O=C(NCC1(N2CCOCC2)CCCCC1)c1cc(Br)ccc1Cl`, for which the inhibition was inactive: -9.63%.

Regarding `O=c1[nH]c2ccccc2n1C1CCN(C(c2cccs2)c2nnnn2C2CCCCC2)CC1` (configuration not stated), the inhibition was active: 55.6%.

Turning to `COc1ccc(C(=O)NCC2(N3CCOCC3)CCCCC2)cc1OC`, the inhibition was inactive: 8.77%.

`O=c1[nH]c2ccccc2n1C1CCN(C(c2ccnc3ccccc23)c2nnnn2C2CCCC2)CC1` (configuration not stated): the inhibition was inactive: 45.1%.

Take `CN(C)C1(CNC(=O)c2cccc(C#N)c2)CCCCC1`: the inhibition was inactive: 1.17%.

In the case of `c1ccc(CN2CCC(Nc3ccccc3)CC2)cc1`, the inhibition was inactive: -1.82%.

In the case of `Cc1cc(N(CCCl)CCCl)ccc1C=O`, the inhibition is inactive: 0.22%.

As for `O=c1[nH]c2ccccc2n1C1CCN(C(c2ccccc2)c2nnnn2C2CCCC2)CC1` (configuration not stated), the inhibition is inactive: 17.4%.

For `CCCN1CCC(Nc2cc(OC)cc(OC)c2)CC1`, the inhibition is inactive: 13.6%.

Consider `CC(C)(C)n1nnnc1C(c1cccc2ccccc12)N1CCC(n2c(=O)[nH]c3ccccc32)CC1` (configuration not stated), for which the inhibition was active: 65.7%.

Consider `N#Cc1ccc(C(=O)NCC2(N3CCCCC3)CCCCC2)cc1`, for which the inhibition is inactive: -30.1%.

For the molecule `CC(C)(C)OC(=O)N1CCC(N(C(=O)c2ccccc2)c2ccc(Cl)cc2)CC1`, the inhibition was inactive: 21.7%.

As for `Cc1ccccc1NC1(C#N)CCN(Cc2ccccc2)CC1`, the inhibition is inactive: 9.02%.

As for `CC(C)(C)n1nnnc1C(c1ccnc2ccccc12)N1CCC(n2c(=O)[nH]c3ccccc32)CC1` (configuration not stated), the inhibition was inactive: 35.9%.

For the molecule `CCN1CCC(Nc2cccc(F)c2)CC1`, the inhibition is inactive: 9.77%.

Take `COc1ccc(C(c2nnnn2C2CCCCC2)N2CCC(n3c(=O)[nH]c4ccccc43)CC2)cc1` (configuration not stated): the inhibition was inactive: 21.9%.

For `O=C(NCC1(N2CCCCC2)CCCCC1)c1ccco1`, the inhibition was inactive: 2.08%.

`Cn1c(=O)[nH]cc(N(CCCl)CCCl)c1=O`: the inhibition was inactive: 20.8%.

Turning to `CN(C)c1ccc(C(=O)NCC2(N3CCCCC3)CCCCC2)cc1`, the inhibition was inactive: 21.2%.

Regarding `CC(=O)N(c1ccccc1)C1CCNCC1`, the inhibition is inactive: 7.05%.

Take `COc1cccc(C(c2nnnn2C2CCCCC2)N2CCC(n3c(=O)[nH]c4ccccc43)CC2)c1OC` (configuration not stated): the inhibition is active: 60.9%.

For `CCC(c1nnnn1C1CCCCC1)N1CCC(n2c(=O)[nH]c3ccccc32)CC1` (configuration not stated), the inhibition is inactive: 9.78%.

As to `O=c1[nH]c2ccccc2n1C1CCN(C(c2ccnc3ccccc23)c2nnnn2C2CCCCC2)CC1` (configuration not stated), the inhibition is inactive: 29.3%.

As for `COc1cc(OC)cc(C(=O)NCC2(N3CCCCC3)CCCCC2)c1`, the inhibition is inactive: -8.39%.

For the molecule `Cc1ccc(C(=O)NCC2(N3CCCCC3)CCCCC2)o1`, the inhibition was inactive: 15.9%.

As to `Fc1ccccc1NC1CCN(Cc2ccccc2)CC1`, the inhibition is inactive: 13.1%.

For `Cc1ccc(NC2(C#N)CCN(Cc3ccccc3)CC2)cc1`, the inhibition is inactive: -12.9%.

Consider `COc1cccc(C(=O)N(c2cc(C)cc(C)c2)C2CCN(C(=O)OC(C)(C)C)CC2)c1`, for which the inhibition was inactive: 26%.

Regarding `COc1cc(OC)cc(C(=O)NCC2(N3CCOCC3)CCCCC2)c1`, the inhibition is inactive: -2.49%.

On to `COc1cccc(C(c2nnnn2C2CCCC2)N2CCC(n3c(=O)[nH]c4ccccc43)CC2)c1OC` (configuration not stated), for which the inhibition is inactive: 47.4%.

`CCC(CO)(C(=O)OC1CN2CCC1CC2)c1ccccc1` (configuration not stated): the inhibition was inactive: 7.13%.

With `CN1CCC(Nc2ccc(Cl)cc2)CC1`, the inhibition was inactive: 4.6%.

For the molecule `CCOc1ncccc1C(=O)NCC1(N2CCOCC2)CCCCC1`, the inhibition is inactive: 7.98%.

As to `CN1CCC(Nc2ccc(F)c(Cl)c2)CC1`, the inhibition is inactive: 11.8%.

As for `CC(C)(C)OC(=O)N1CCC(Nc2ccccc2)CC1`, the inhibition was inactive: -20.8%.

With `O=C(O)C1(Nc2ccccc2)CCN(Cc2ccccc2)CC1`, the inhibition was inactive: 1.82%.

Turning to `CCCOc1ccc(C(=O)NCC2(N(C)C)CCCCC2)cc1`, the inhibition is inactive: 11.3%.

On to `O=c1[nH]c2ccccc2n1C1CCN(C(c2cc3ccccc3o2)c2nnnn2C2CCCC2)CC1` (configuration not stated), for which the inhibition was inactive: -3.48%.

As for `O=c1[nH]c2ccccc2n1C1CCN(C(c2ccccc2OC(F)(F)F)c2nnnn2C2CCCCC2)CC1` (configuration not stated), the inhibition was inactive: 24.7%.

`O=C(NCC1(N2CCCCC2)CCCCC1)c1ccc(Cl)nc1`: the inhibition is inactive: 26.9%.

With `Cc1cc(C)cc(N(C(=O)c2ccccc2)C2CCN(C(=O)OC(C)(C)C)CC2)c1`, the inhibition was inactive: 14.9%.

`O=C(NCC1(N2CCOCC2)CCCCC1)c1cc2ccccc2o1`: the inhibition was inactive: 11.6%.

As for `O=c1[nH]c2ccccc2n1C1CCN(C(c2cc3ccccc3o2)c2nnnn2C2CCCCC2)CC1` (configuration not stated), the inhibition was active: 79.1%.

With `O=C(OC1CN2CCC1CC2)C1c2ccccc2Oc2ccccc21` (configuration not stated), the inhibition is inactive: 10.2%.

On to `O=C(NCC1(N2CCCCC2)CCCCC1)c1ccc(Cl)s1`, for which the inhibition was inactive: 9.51%.

On to `N#CC1(Nc2ccccc2)CCN(Cc2ccccc2)CC1`, for which the inhibition was inactive: 6.86%.

Regarding `COc1ccc(Cl)cc1C(=O)NCC1(N2CCOCC2)CCCCC1`, the inhibition was inactive: 6.1%.

For the molecule `CCOC(=O)N1CCC(Nc2ccc(OC)cc2)CC1`, the inhibition is inactive: 9.37%.

For `CCCCn1nnnc1C(c1ccc(OC)cc1)N1CCC(n2c(=O)[nH]c3ccccc32)CC1` (configuration not stated), the inhibition is inactive: 18%.

For the molecule `COc1ccc(C(=O)NCC2(N3CCCCC3)CCCCC2)cc1`, the inhibition is inactive: 3.79%.

Regarding `CCC(c1nnnn1C1CCCC1)N1CCC(n2c(=O)[nH]c3ccccc32)CC1` (configuration not stated), the inhibition is inactive: 2.94%.

`CC(C)(C)OC(=O)N1CCC(N(C(=O)c2ccccc2)c2ccc(F)cc2)CC1`: the inhibition was inactive: 6.28%.

As for `COc1ccc(C(=O)NCC2(N3CCCCC3)CCCCC2)c(OC)c1OC`, the inhibition was inactive: -0.77%.

As for `O=C(NCC1(N2CCCCC2)CCCCC1)c1ccc(=O)[nH]c1`, the inhibition was inactive: 14.6%.

Regarding `CCCCn1nnnc1C(c1cccs1)N1CCC(n2c(=O)[nH]c3ccccc32)CC1` (configuration not stated), the inhibition was active: 71.2%.

In the case of `O=C(NCC1(N2CCCCC2)CCCCC1)c1cccs1`, the inhibition was inactive: 4.63%.

`CCCCn1nnnc1C(CC)N1CCC(n2c(=O)[nH]c3ccccc32)CC1` (configuration not stated): the inhibition is inactive: 20.5%.

On to `CSc1ccccc1C(=O)NCC1(N2CCCCC2)CCCCC1`, for which the inhibition is inactive: 11.6%.

Turning to `Cc1cccc(NC2(C#N)CCN(Cc3ccccc3)CC2)c1`, the inhibition was inactive: 0.84%.

In the case of `O=c1[nH]c2ccccc2n1C1CCN(C(c2ccccc2)c2nnnn2C2CCCCC2)CC1` (configuration not stated), the inhibition is inactive: 45.4%.

As to `COc1cc(C(=O)NCC2(N(C)C)CCCCC2)ccc1OC(F)F`, the inhibition was inactive: -16%.

Consider `CCOC(=O)N1CCC(Nc2cccc(C)c2)CC1`, for which the inhibition was inactive: 16.5%.

Regarding `O=c1[nH]c2ccccc2n1C1CCN(C(c2cccc3ccccc23)c2nnnn2C2CCCC2)CC1` (configuration not stated), the inhibition is active: 62.2%.

On to `CC(C)(C)n1nnnc1C(c1ccccc1)N1CCC(n2c(=O)[nH]c3ccccc32)CC1` (configuration not stated), for which the inhibition was inactive: 15.4%.

In the case of `O=C1CCN(Cc2ccccc2)CC1`, the inhibition was inactive: 8.19%.

Consider `CCOc1ccc(C)cc1CN(CCCl)CCCl`, for which the inhibition is inactive: 21.1%.

For `O=C(NCC1(N2CCCCC2)CCCCC1)c1ccc(F)cc1`, the inhibition is inactive: 19.3%.

`CCCCOc1ccc(C(=O)NCC2(N3CCOCC3)CCCCC2)cc1`: the inhibition is inactive: -22.3%.

With `CCCCn1nnnc1C(c1cc2ccccc2o1)N1CCC(n2c(=O)[nH]c3ccccc32)CC1` (configuration not stated), the inhibition was active: 77.5%.

Consider `O=P1(N(CCCl)CCCl)SCCCS1`, for which the inhibition was inactive: 11.3%.

For the molecule `CCOC(=O)N1CCC(Nc2ccc(F)cc2)CC1`, the inhibition is inactive: -6.14%.

On to `COc1ccc(NC2CCN(CCc3ccccc3)CC2)c(OC)c1`, for which the inhibition is inactive: 14.7%.

Turning to `O=C(NCC1(N2CCCCC2)CCCCC1)c1cccc(C(F)(F)F)c1`, the inhibition is inactive: 16.6%.

Turning to `O=C(NCC1(N2CCOCC2)CCCCC1)c1cc(=O)[nH]c2ccccc12`, the inhibition is inactive: 1.23%.

Take `COc1cc(C(=O)NCC2(N3CCCCC3)CCCCC2)ccc1OC(F)F`: the inhibition is inactive: 12.6%.

For `CCCCn1nnnc1C(c1cccc2ccccc12)N1CCC(n2c(=O)[nH]c3ccccc32)CC1` (configuration not stated), the inhibition was active: 69.3%.

Consider `CC(C)c1ccc(C(=O)NCC2(N3CCOCC3)CCCCC2)cc1`, for which the inhibition was inactive: -12.6%.

Take `COc1ccc(NC2CCN(C(=O)OC(C)(C)C)CC2)cc1`: the inhibition was inactive: -15.1%.

Turning to `CN1CCN(CCOC(=O)C(O)(c2ccccc2)c2ccccc2)CC1`, the inhibition was inactive: 6.07%.

In the case of `CC(C)(C)n1nnnc1C(c1ccccc1OC(F)(F)F)N1CCC(n2c(=O)[nH]c3ccccc32)CC1` (configuration not stated), the inhibition was inactive: 44.2%.

With `O=C(NCC1(N2CCCCC2)CCCCC1)c1ccc(OC(F)F)cc1`, the inhibition is inactive: 15.5%.

On to `CCN1CCC(Nc2ccc(Cl)cc2)CC1`, for which the inhibition was inactive: 9.72%.

Take `N#CC1(Nc2ccccc2)CCN(CCc2ccccc2)CC1`: the inhibition is inactive: -6.65%.

With `O=c1[nH]c2ccccc2n1C1CCN(C(c2ccccc2OC(F)(F)F)c2nnnn2C2CCCC2)CC1` (configuration not stated), the inhibition is inactive: 27.6%.

Consider `O=C(NCC1(N2CCCCC2)CCCCC1)c1cccc([N+](=O)[O-])c1`, for which the inhibition is inactive: 15.3%.

Take `CSc1ccc(C(=O)NCC2(N3CCOCC3)CCCCC2)cc1`: the inhibition is inactive: -1.31%.

Regarding `O=C(NCC1(N2CCCCC2)CCCCC1)c1cncc(Br)c1`, the inhibition is inactive: 11.5%.

Consider `CN1CCC(Nc2cccc(F)c2)CC1`, for which the inhibition was inactive: 11.1%.

In the case of `COc1ccc(C(c2nnnn2C2CCCC2)N2CCC(n3c(=O)[nH]c4ccccc43)CC2)cc1` (configuration not stated), the inhibition is inactive: 16.9%.

In the case of `Cc1ccc(C(=O)NCC2(N(C)C)CCCCC2)o1`, the inhibition is inactive: -5.17%.

`CCCOc1ccc(C(=O)NCC2(N(C)C)CCCCC2)cc1OC`: the inhibition was inactive: 0.33%.

For the molecule `CCCCn1nnnc1C(c1ccccc1OC(F)(F)F)N1CCC(n2c(=O)[nH]c3ccccc32)CC1` (configuration not stated), the inhibition is inactive: 25.5%.

As to `CC(C)c1ccc(NC2CCN(C(=O)OC(C)(C)C)CC2)cc1`, the inhibition was inactive: -233%.

As for `COc1ccc(CN(CCCl)CCCl)cc1Cl`, the inhibition was inactive: 11.1%.

Consider `CN(C)c1cccc(C(=O)NCC2(N3CCCCC3)CCCCC2)c1`, for which the inhibition is inactive: -5.5%.

With `COc1cc(OC)c(C(=O)NCC2(N(C)C)CCCCC2)cc1OC`, the inhibition was inactive: 4.81%.

Take `CCC(c1nnnn1C(C)(C)C)N1CCC(n2c(=O)[nH]c3ccccc32)CC1` (configuration not stated): the inhibition is inactive: 2.03%.

Consider `O=C(NCC1(N2CCOCC2)CCCCC1)c1cc(F)c(F)cc1Cl`, for which the inhibition was inactive: -7.72%.

`CCCCn1nnnc1C(c1ccnc2ccccc12)N1CCC(n2c(=O)[nH]c3ccccc32)CC1` (configuration not stated): the inhibition is inactive: 10.7%.
